Patent US20240238440A1, “PREPARATION METHOD FOR AND APPLICATION OF ANTIBODY CONJUGATED DRUG” (HYSLINK THERAPEUTICS, priority 2021, published 2024)

Key:
[1] = test system: COLO205 human colon cancer cells; assay: In vivo anti-tumor experiment (1), COLO205 xenograft; design: species or system nude mice; settings: COLO205, low HER2; intravenous day 0; 3 mg/kg and 10 mg/kg (Kadcyla 10 mg/kg); FIG. 29
Description: The efficacy of the combination of the present invention can be measured in vivo, i.e., an allograft or xenograft of cancer cells was implanted in rodents, and the tumors were treated with the combination. Test mice were treated with drugs or controls and monitored for several weeks or longer to measure the time to tumor doubling, log cell killing, and tumor inhibition.
COLO205 human colon cancer cells (ATCC) with low expression of HER2 were suspended in physiological saline. 4×10^7 cells were subcutaneously transplanted into the right flank of female nude mice, which were randomized into groups on day 6. […] As a control group, a PBS buffer-administered group was set.
It should be noted that, regarding the expression of HER2 in tumors, the results obtained by the determination based on immunohistochemical staining classified those with a score of 3+ as high expression, those with a score of 2+ as medium expression, and those with a score of 1+ as low expression.

[2] = test system: breast cancer with low HER2 expression; settings: DS8201-A-J101 clinical study; cited from earlier work
[3] = in vivo; cited from earlier work

Substance	tumor growth inhibitory activity [1]	confirmed objective response rate (ORRs) [2] [%]	side effects [3]
Kadcyla	did not show tumor growth inhibitory activity		
Enhertu		37.0	pneumonia and interstitial lung disease
